Data published in patent US6368788B1 (priority 1987, dated 2002).
Entries after “also recorded” stand apart in the source; their conditions may differ.

Tests used:
[1] = test system: Human Peripheral Blood Lymphocytes; assay: Analysis of possible chromosomal damage (mutagenicity), 24 hrs incubation in vitro; format: cell-based; conditions: for Metaphases chromosome aberrations, #: 1000 analysed metaphases
Procedure: On peripheral blood of human volunteers in vitro. Cell cultures were incubated and treated.

Acute toxicity studies = format: in vivo, mice, guinea pigs, chickens, and dogs
Excerpt: L-Glu-L-Trp, when injected im at dosages calculated to be about 10,000-times the therapeutic dosage, was non toxic in mice, guinea pigs, chickens, and dogs as determined by monitoring general condition, behavior, movements, cardiac and respiratory physiology, and gross pathology.

[2] = Chronic toxicity studies, daily im or iv for 30 days; format: in vivo; conditions: daily single im or iv
Procedure: Kidney function was determined by evaluation of diuresis after water-loading; for certain other experiments animals were sacrificed and examined after 10, 20, 30, and 60 days.

[3] = Pleuritis / suppurative lung diseases, combined antibiotic therapy (Protocol K); parameters: species or system human; conditions: in vivo
Procedure: Efficacy of L-Glu-L-Trp in combined antibiotic therapy was evaluated in twelve male patients (aged 18 to 45) with suppurative lung diseases that were poorly responsive to antibiotic therapy and accompanied by diffuse pleuritis, disseminated intravascular coagulation (DIC), pleural effusions, and fever. […] L-Glu-L-Trp was administered to these patients as a treatment of nearly last resort, and as part of the ongoing (unsuccessful) regimen of broad spectrum antibiotic therapy: i.e., 200 μg of L-Glu-L-Trp was administered im daily over a period of 5-7 days. […] In addition, T-cell counts in peripheral blood increased and IgG, IgM, and IgA increased (TABLE 17) and C-reactive protein levels fell (TABLE 16).

[4] = Ophthalmic diseases, parabulbar or conjunctival instillation; parameters: species or system human; conditions: in vivo
Procedure: Forty one patients (41; 17 men and 24 women; ranging in age from 17 to 68 years) with various eye diseases of infectious and non-infectious origin were treated with L-Glu-L-Trp. Patients having the following infectious, and non-infectious, ophthalmic diseases were entered into the trial: a) nonviral conjunctivitis, keratitis, chronic uveitis, persistent sties, and, focal chorioretinitis; and, b) retinal pigment dystrophy, Grenblad-Stranberg syndrome, and maculophathy, respectively. Five patients were Class II invalids due to vision impairment, 4 were Class III, and 32 were impaired but not invalid. […] L-Glu-L-Trp was administered daily in a single 0.1 mL (10 μg) dose by the parabulbar route (Group 1; n=21), or alternatively one drop of the dipeptide solution (5 μg) was delivered into the conjunctival cavity twice daily on each of 5 consecutive days (Group 2; n=20). Thirty six patients undergoing conventional therapy served as a control group (Group 3; n=36). […]
Vision was assessed using standard measurements: i.e., field of vision, visual acuity, electrophysiological indices. […] Immune parameters in peripheral blood were also assessed. […]

T-lymphocyte function = assay: Naval specialists with occupational immunologic impairments; parameters: species or system human; conditions: in vivo
Procedure: A clinical trial was conducted of 152 naval specialists (aged 20-40 years) with evidence of occupational immunologic impairments resulting from their exposure to radiation and occupational toxins in the Kosomolets nuclear submarine sinking off the coast of […]. L-Glu-L-Trp was evaluated for its possible effects on cellular and/or humoral immunity. Approximately 87% of the servicemen entered into the trial had moderate to severely impaired T-lymphocyte functional activity, (i.e., evidenced by decreased LMIR and blastogenesis with Con-A) and reduced neutrophil phagocytic activity (i.e., 30-40% of normal). Immune parameters were determined before and after a routine 21-24 day rest period, during a normal rest/recuperation and training rotation. Servicemen were divided into two groups, the first (control) group received no treatment, and the second (experimental) group of 88 servicemen received three consecutive daily intranasal doses of 100 mcg L-Glu-L-Trp.

Dengue virus = assay: Hemorrhagic Dengue Fever Protocol A; parameters: species or system human; conditions: in vivo
Procedure: L-Glu-L-Trp was administered to 21 patients with hemorrhagic Dengue Fever, and 28 patients receiving conventional therapy served as controls. L-Glu-L-Trp was administered im single daily doses of 100 μg on each of 5 consecutive days as an adjunct to ongoing conventional therapy. […] The investigators also observed that L-Glu-L-Trp treated patients experienced a reduction in muscle and bone pain. Immunological indices in peripheral blood were also normalized.
Forty nine patients (20-30 years of age; Kinh nationality) with diagnosed Dengue Fever were entered into the trial. The patients were referred to the 175th Military Hospital in Ho Chi Minh City at the time of an epidemic of Dengue fever in the South […] Republic of Vietnam. Diagnosis was based on the criteria recommended by the World Health Organization (1986) using medical histories, and clinical and laboratory data. […] Leukocytes during peak episodes of disease were recorded to be 4.60±0.17×10^9/L, and the absolute number of lymphocytes varied widely from 0.95 to 4.29×10^9/L.
Group 1 received conventional maintenance therapy consisting of detoxifying preparations and methods, e.g., fluids, fever control agents and the like. […] The efficacy of the respective treatment protocols was evaluated by recording the most frequently used clinical indicia of Dengue disease activity: namely, the clinical indicia recorded in TABLE 45.

[5] = Chronic liver disease: jaundice and systemic toxicity; format: in vivo, human; conditions: 2 with autoantibodies, 2 cryptogenic cirrhosis
[6] = Solubility of the purified dipeptide; format: physicochemical
Excerpt: Conveniently, the subject R′-Glu-Trp-R″ dipeptide is synthesized by any of a number of automated techniques that are now commonly available. Generally speaking, these techniques involve stepwise synthesis by successive additions of amino acids to produce progressively larger molecules. The amino acids are linked together by condensation between the carboxyl group of one amino acid and the amino group of another amino acid to form a peptide bond. To control these reactions, it is necessary to block the amino group of one amino acid and the carboxyl group of the other. The blocking groups should be selected for easy removal without adversely affecting the peptides, i.e., by racemization or by hydrolysis of the formed peptide bonds. Amino acids with carboxyl- groups (e.g., Asp, Glu) or hydroxyl- groups (e.g., Ser, homoserine, and Tyr) also require blocking prior to condensation. A wide variety of procedures exist for synthesis of peptides, solid-phase synthesis usually being preferred. In this procedure an amino acid is bound to a resin particle, and the peptide generated in a stepwise manner by successive additions of protected amino acids to the growing chain. Modifications of the technique described by Merrifield are commonly used (Merrifield, R. B., J. Am. Chem. Soc., 96: 2989-2993, 1964)). […]

[7] = Pharmacokinetic studies: labeled L-Glu-L-Trp by intranasal instillation; format: in vivo, experimental animals
Procedure: L-Glu-L-Trp treatment was administered by two different routes: namely, im (Group 1A) and intranasally (Group 1B). Group 1 A consisted of 17 patients (ie., 17 of the 36 patients in Group 1) who were treated with L-Glu-L-Trp by intramuscular injection of 100 μg daily for 5 days. Group 1B, the remaining 19 patients in Group 1, received L-Glu-L-Trp by intranasal instillation, daily for 5 days, of 1 mL of a 0.01% solution.

[8] = Clinical tests, summary across the illustrative Examples; conditions: in vivo
[9] = test system: human and guinea pig lymphocytes; assay: Toxicity to lymphocytes in vitro; format: cell-based
[10] = im injections

Substance: L-Glu-L-Trp
- Mutagenic effect in vitro ([1]; 1 μg/mL and 100 μg/mL, 24 hrs): non-mutagenic in vitro; also recorded: statistically no mutagenic effect
- Level of mutagenic effect (numbers) ([1]; 1 μg/ml): 0
- Metaphases chromosome aberrations, % ([1]; 1 μg/ml): 1.5%
- Metaphases chromosome aberrations, # ([1]; 1 μg/ml): 15
- Level of mutagenic effect (numbers) ([1]; 100 μg/ml): 0
- Metaphases chromosome aberrations, % ([1]; 100 μg/ml): 1.6%
- Metaphases chromosome aberrations, # ([1]; 100 μg/ml): 16
- Toxicity when injected intraperitoneally (Acute toxicity studies; guinea pigs and mice): non-toxic
- Acute toxicity (Acute toxicity studies; im, about 10,000-times the therapeutic dosage): non toxic
- Chronic toxicity [2]: without adverse effects
- Allergic or adverse effects [3]: No allergic or adverse effects
- Unfavorable response [4]: No unfavorable response to therapy was observed
- Side-effects (T-lymphocyte function): no observed side-effects or indications of any intolerance
- Side effects (Dengue virus): No side effects or allergic effects were observed
- Patients in whom illness was aggravated [5]: 4
- Solubility [6]: soluble in water, DMF; also recorded: insoluble in chloroform and ether
- Appearance of label in peripheral blood [7]: rapid, i.e., minutes, appearance of label in peripheral blood
- Adverse effects in human preclinical trials [8]: without adverse effects
- Toxicity to lymphocytes in vitro [9]: non-toxic
- Patients with short-lived aggravation of the dermal diseases (Staphylococci; Stage 1, after second day): 20 of the 36
- Side effects or allergic reactions (Staphylococci; in vivo): No side effects or allergic reactions were observed
- Side effect or allergic reaction [10]: did not induce any visible side effect or allergic reaction
